Ab-14 heavy chain CDR variants: yeast mating affinities

Data: MIT Lincoln Laboratory AlphaSeq set, Engelhart et al. 2022, doi:10.1038/s41597-022-01779-4, as distributed in FLAb.

Target peptide (SARS-CoV-2 spike, HR2 region): PDVDLGDISGINAS

Ab-14 is the parent antibody, in scFv form: VH, then the linker GGGGSGGGGSGGGGS, then VL. The light chain is unchanged in all variants.
VH: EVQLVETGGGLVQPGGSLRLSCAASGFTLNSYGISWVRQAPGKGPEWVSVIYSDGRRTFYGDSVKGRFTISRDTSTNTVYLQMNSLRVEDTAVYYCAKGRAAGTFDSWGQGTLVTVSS
VL: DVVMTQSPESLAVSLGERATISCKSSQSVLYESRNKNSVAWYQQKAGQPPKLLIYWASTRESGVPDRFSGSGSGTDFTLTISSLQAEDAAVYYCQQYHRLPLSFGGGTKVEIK

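Phage display of a naive human antibody library on the peptide gave the parent. Variants in AAYL49 differ from the parent at up to three CDR positions; double and triple changes were sampled at random. The scFvs were displayed on barcoded MATa yeast, the peptide on MATalpha yeast. The frequency of each diploid, read from paired DNA barcodes, reflects how well the two displayed proteins bind. The ratio of observed to expected reads was calibrated, replicate by replicate, on BCL2-family standards whose Kd was known from biolayer interferometry. Each pool was mated in three replicate cultures.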

Substitutions are numbered in sequence along the VH above, starting at 1 (not Kabat).
This list gathers variants with a substitution at V50 (VH, numbered from residue 1).
Values are apparent Kd, the geometric mean of the replicates that gave a signal; lower means stronger binding.
An entry "nd" has no value in the source: the pair was not observed among the diploids in any replicate. This suggests poor binding but is not conclusive.

The variant L29S+V50S+S53C showed nd (0 of 3 replicates; controls 0 of 9). For G33I+S35Q+V50M, the assay gave nd (0 of 3 replicates; controls 2 of 9). With V50S+Y60C+D62I the result was nd (0 of 3 replicates; controls 1 of 9). The variant V50K+Y60I showed nd (0 of 3 replicates; controls 0 of 9). The variant V50F+G55A+F59P showed 4.0 µM (1 of 3 replicates; controls 0 of 9). The variant V50S+D106N showed 28 µM (2 of 3 replicates; controls 6 of 9). For V50A+G55A+K65P, the assay gave 64 µM (1 of 3 replicates; controls 3 of 9).

For V50T+Y52L+R56S, the assay gave 9.7 µM (1 of 3 replicates; controls 3 of 9). The variant F27S+V50H+D106Q showed 14 µM (1 of 3 replicates; controls 3 of 9). The variant G26S+V50E+I51F showed nd (0 of 3 replicates; controls 0 of 9). For V50S+A101T+G103C, the assay gave 140 nM (1 of 3 replicates; controls 0 of 9). For T28S+V50G+Y60V, the assay gave 13 µM (1 of 3 replicates; controls 3 of 9). The variant V50N+F59G+S63T showed nd (0 of 3 replicates; controls 1 of 9). The variant T28C+V50R+S53I showed 200 µM (1 of 3 replicates; controls 2 of 9).

With V50P+F59V+R100C the result was nd (0 of 3 replicates; controls 0 of 9). The variant G33H+V50H+K65Q showed 20 µM (2 of 3 replicates; controls 1 of 9). The variant F27I+V50Y+G103P gave nd (0 of 3 replicates; controls 0 of 9). For I34L+V50A+A102M, the assay gave nd (0 of 3 replicates; controls 1 of 9). The variant L29C+V50S+D54H showed 1.1 µM (1 of 3 replicates; controls 3 of 9). For I34T+V50T, the assay gave 19 µM (2 of 3 replicates; controls 2 of 9). For S31L+V50T+D106I, the assay gave 720 nM (1 of 3 replicates; controls 2 of 9).

With S35F+V50S+I51E the result was nd (0 of 3 replicates; controls 5 of 9). For V50G+S53D+S107C, the assay gave 1.4 mM (2 of 3 replicates; controls 5 of 9). The variant L29H+V50S+F105E gave 140 µM (2 of 3 replicates; controls 2 of 9). For V50W+G103D, the assay gave nd (0 of 3 replicates; controls 0 of 9). The variant V50H+A101F+F105M gave nd (0 of 3 replicates; controls 4 of 9). For G26A+V50C+R56Y, the assay gave 22 µM (3 of 3 replicates; controls 9 of 9). For G26W+V50G+D62A, the assay gave nd (0 of 3 replicates; controls 1 of 9).

For T28W+V50R+S107V, the assay gave nd (0 of 3 replicates; controls 3 of 9). With Y32M+V50G+A102W the result was nd (0 of 3 replicates; controls 0 of 9). With G33L+V50L+F59H the result was nd (0 of 3 replicates; controls 0 of 9). The variant V50M+Y60E+S63H gave 3.6 µM (1 of 3 replicates; controls 0 of 9). With S31F+V50P+D62N the result was 48 µM (2 of 3 replicates; controls 5 of 9). The variant V50D+V64K gave 37 µM (2 of 3 replicates; controls 3 of 9). For S35F+V50E+T58P, the assay gave nd (0 of 3 replicates; controls 0 of 9).

For V50C+Y52I+R56V, the assay gave nd (0 of 3 replicates; controls 1 of 9). The variant L29H+S31E+V50M gave 72 µM (2 of 3 replicates; controls 2 of 9). The variant N30G+V50K+G99Q gave 55 µM (2 of 3 replicates; controls 0 of 9). With G26A+V50M the result was nd (0 of 3 replicates; controls 1 of 9). For V50W+I51K+D54E, the assay gave nd (0 of 3 replicates; controls 0 of 9). The variant V50Q+T58K+G99V showed 7.7 µM (1 of 3 replicates; controls 1 of 9). For T28D+V50K+S63P, the assay gave 15 µM (1 of 3 replicates; controls 2 of 9).

With S35K+V50H+G61D the result was nd (0 of 3 replicates; controls 0 of 9).

Nonspecific signal, from three strains lacking the peptide, appeared in 15% of pairings of library AAYL49, centred on 11 µM (5% of these signals below 680 nM); values are not corrected for it. The control count says in how many pairings with the empty strains this scFv gave a signal.